Assay results taken from ChEMBL document CHEMBL6127109, “mARC1 Is the Main Contributor to Metabolic Reduction of N-Hydroxyurea” (J Med Chem, 2024).

What was measured:
[1] = substrate: NC(=O)NO; assay: Binding affinity to human recombinant mARC1 extracted from Escherichia coli assessed as Vmax by Michaelis-menten based analysis
[2] = substrate: NC(=O)NO; assay: Binding affinity to human recombinant mARC2 extracted from Escherichia coli assessed as Vmax by Michaelis-menten based analysis

Protein	Vmax [1]	Vmax [2]
Mitochondrial amidoxime-reducing component 1 (Homo sapiens), Q5VT66 (protein) MGAAGSSALARFVLLAQSRPGWLGVAALGLTAVALGAVAWRRAWPTRRRRLLQQVGTVAQLWIYPVKSCKGVPVSEAECTAMGLRSGNLRDRFWLVINQEGNMVTARQEPRLVLISLTCDGDTLTLSAAYTKDLLLPIKTPTTNAVHKCRVHGLEIEGRDCGEATAQWITSFLKSQPYRLVHFEPHMRPRRPHQIADLFRPKDQIAYSDTSPFLILSEASLADLNSRLEKKVKATNFRPNIVISGCDVYAEDSWDELLIGDVELKRVMACSRCILTTVDPDTGVMSRKEPLETLKSYRQCDPSERKLYGKSPLFGQYFVLENPGTIKVGDPVYLLGQ	490 nmol/mg/min	
Mitochondrial amidoxime reducing component 2 (Homo sapiens), Q969Z3 (protein) MGASSSSALARLGLPARPWPRWLGVAALGLAAVALGTVAWRRAWPRRRRRLQQVGTVAKLWIYPVKSCKGVPVSEAECTAMGLRSGNLRDRFWLVIKEDGHMVTARQEPRLVLISIIYENNCLIFRAPDMDQLVLPSKQPSSNKLHNCRIFGLDIKGRDCGNEAAKWFTNFLKTEAYRLVQFETNMKGRTSRKLLPTLDQNFQVAYPDYCPLLIMTDASLVDLNTRMEKKMKMENFRPNIVVTGCDAFEEDTWDELLIGSVEVKKVMACPRCILTTVDPDTGVIDRKQPLDTLKSYRLCDPSERELYKLSPLFGIYYSVEKIGSLRVGDPVYRMV		248 nmol/mg/min
